System: pressure-overloaded mouse heart
Test: TAC heart failure model with preexisting dysfunction, BT2 from 2 weeks post-TAC for 6 weeks, echocardiography and survival
Type: in vivo
Conditions: week 8 post-TAC
Protocol: In mice, transverse aortic constriction (TAC) was performed as described (Lee et al. (2011) Circulation Research 109:1332-1341) in anesthetized (pentobarbital 60 mg/kg, IP) and ventilated mice (age 12-14 weeks) to induce hypertrophy and heart failure. After left anterolateral thoracotomy with blunt dissection through the intercostal muscles, aortic constriction was induced by ligating the transverse aorta around a 27½-gauge blunt needle using 6-0 silk suture. The needle was subsequently removed. Sham-operated mice underwent a similar surgical procedure without constriction of the aorta. All mice were maintained in the same environment with regular lab chow and water ad libitum. At the end of the experiments, animals were euthanized and the hearts and lungs were removed and weighed. Hearts were dissected and tissues were either immediately immersed into 4% buffered formaldehyde or quickly frozen in liquid nitrogen for further experiments.

O=C(O)c1sc2cc(Cl)ccc2c1Cl [BT2, 3,6-dichlorobenzo[b]thiophene-2-carboxylic acid] was tested. Which “cardiac hypertrophy (heart weight and tibia length ratio, hypertrophic markers)” value did it give?
Its value is “without affecting”.

Reference: patent publication US20210278391A1, “COMPOSITIONS AND METHODS FOR TREATING CARDIOVASCULAR AND METABOLIC CONDITIONS” (The Regents of the University of California, priority 2017, published 2021)
